Measured values reported in ChEMBL document CHEMBL1131204, “Flavonoid derivatives as adenosine receptor antagonists: a comparison of the hypothetical receptor binding site based on a comparative molecular field analysis model” (J Med Chem, 1998).

Amino acid sequences for entries named in this document (tags omitted).
UniProt P25099, whole entry: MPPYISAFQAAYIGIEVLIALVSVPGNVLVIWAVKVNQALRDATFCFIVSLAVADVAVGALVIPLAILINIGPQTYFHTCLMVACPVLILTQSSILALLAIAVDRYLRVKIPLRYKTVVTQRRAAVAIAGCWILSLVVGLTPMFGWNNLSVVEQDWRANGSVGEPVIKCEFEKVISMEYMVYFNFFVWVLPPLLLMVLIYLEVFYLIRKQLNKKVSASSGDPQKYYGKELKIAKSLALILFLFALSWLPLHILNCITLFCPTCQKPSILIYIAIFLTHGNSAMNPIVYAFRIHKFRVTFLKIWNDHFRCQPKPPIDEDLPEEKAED

Biological target: Adenosine receptor A1 (Rattus norvegicus) (UniProt P25099)
Assay: Ability to displace [3H]N6-phenylisopropyladenosine binding from adenosine A1 receptor.

O=c1cc(-c2ccccc2)oc2cccc(O)c12
pKi(uM): -0.34
